Data: patent publication US20230233690A1 (published 2023)

Amino acid sequences for entries named in this document (tags omitted). A change or cut given only in a name is not applied to a line headed by its entry.
UniProt P10275: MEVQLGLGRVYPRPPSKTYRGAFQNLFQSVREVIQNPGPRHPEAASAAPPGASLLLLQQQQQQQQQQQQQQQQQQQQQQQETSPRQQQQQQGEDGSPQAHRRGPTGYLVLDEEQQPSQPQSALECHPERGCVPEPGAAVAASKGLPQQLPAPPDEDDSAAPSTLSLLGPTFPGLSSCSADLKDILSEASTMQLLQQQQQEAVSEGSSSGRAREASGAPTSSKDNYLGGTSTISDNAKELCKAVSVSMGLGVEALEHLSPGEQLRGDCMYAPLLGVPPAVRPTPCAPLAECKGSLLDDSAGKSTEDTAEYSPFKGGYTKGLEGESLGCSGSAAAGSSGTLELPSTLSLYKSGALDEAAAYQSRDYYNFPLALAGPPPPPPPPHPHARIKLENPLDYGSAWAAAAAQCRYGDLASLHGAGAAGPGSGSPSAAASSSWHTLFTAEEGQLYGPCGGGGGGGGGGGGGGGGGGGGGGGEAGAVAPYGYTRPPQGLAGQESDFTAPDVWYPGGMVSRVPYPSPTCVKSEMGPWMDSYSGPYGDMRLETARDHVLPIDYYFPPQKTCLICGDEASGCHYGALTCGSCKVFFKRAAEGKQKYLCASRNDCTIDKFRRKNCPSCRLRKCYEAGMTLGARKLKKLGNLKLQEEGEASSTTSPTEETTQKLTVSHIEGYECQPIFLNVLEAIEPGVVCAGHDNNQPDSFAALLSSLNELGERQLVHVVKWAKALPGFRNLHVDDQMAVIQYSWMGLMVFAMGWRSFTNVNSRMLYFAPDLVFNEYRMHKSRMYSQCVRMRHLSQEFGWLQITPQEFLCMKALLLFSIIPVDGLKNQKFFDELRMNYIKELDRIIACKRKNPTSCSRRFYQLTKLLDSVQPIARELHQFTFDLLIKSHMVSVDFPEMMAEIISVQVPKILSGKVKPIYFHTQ

Biological target: AR protein (Homo sapiens, UniProt P10275)
Assay: Western blotting of AR protein degradation in VCaP cells
Format: cell-based
Settings: 1 μM

Structure (SMILES): CN(c1ccc(C#N)c(Cl)c1)[C@H]1CC[C@H](NC(=O)c2ccc(N3CCN(C4CCN(c5ccc6c(c5)C(=O)N(C5CCC(=O)NC5=O)C6=O)CC4)CC3)cc2)CC1 (stereo partly shown) [Cpd. No. 235, N-((1r,4r)-4-((3-chloro-4-cyanophenyl)(methyl)amino)cyclohexyl)-4-(4-(1-(2-(2,6-dioxopiperidin-3-yl)-1,3-dioxoisoindolin-5-yl)piperidin-4-yl)piperazin-1-yl)benzamide]
- % AR protein degradation in VCaP Cells: 95%
